# Measurements as given in ChEMBL document CHEMBL5705895, “Species comparison and pharmacological characterization of human, monkey, rat, and mouse TRPA1 channels” (J Pharmacol Exp Ther, 2012).
# Sequences of proteins named here, by UniProt entry; tags and fusion partners are left off.
# UniProt O75762, whole entry: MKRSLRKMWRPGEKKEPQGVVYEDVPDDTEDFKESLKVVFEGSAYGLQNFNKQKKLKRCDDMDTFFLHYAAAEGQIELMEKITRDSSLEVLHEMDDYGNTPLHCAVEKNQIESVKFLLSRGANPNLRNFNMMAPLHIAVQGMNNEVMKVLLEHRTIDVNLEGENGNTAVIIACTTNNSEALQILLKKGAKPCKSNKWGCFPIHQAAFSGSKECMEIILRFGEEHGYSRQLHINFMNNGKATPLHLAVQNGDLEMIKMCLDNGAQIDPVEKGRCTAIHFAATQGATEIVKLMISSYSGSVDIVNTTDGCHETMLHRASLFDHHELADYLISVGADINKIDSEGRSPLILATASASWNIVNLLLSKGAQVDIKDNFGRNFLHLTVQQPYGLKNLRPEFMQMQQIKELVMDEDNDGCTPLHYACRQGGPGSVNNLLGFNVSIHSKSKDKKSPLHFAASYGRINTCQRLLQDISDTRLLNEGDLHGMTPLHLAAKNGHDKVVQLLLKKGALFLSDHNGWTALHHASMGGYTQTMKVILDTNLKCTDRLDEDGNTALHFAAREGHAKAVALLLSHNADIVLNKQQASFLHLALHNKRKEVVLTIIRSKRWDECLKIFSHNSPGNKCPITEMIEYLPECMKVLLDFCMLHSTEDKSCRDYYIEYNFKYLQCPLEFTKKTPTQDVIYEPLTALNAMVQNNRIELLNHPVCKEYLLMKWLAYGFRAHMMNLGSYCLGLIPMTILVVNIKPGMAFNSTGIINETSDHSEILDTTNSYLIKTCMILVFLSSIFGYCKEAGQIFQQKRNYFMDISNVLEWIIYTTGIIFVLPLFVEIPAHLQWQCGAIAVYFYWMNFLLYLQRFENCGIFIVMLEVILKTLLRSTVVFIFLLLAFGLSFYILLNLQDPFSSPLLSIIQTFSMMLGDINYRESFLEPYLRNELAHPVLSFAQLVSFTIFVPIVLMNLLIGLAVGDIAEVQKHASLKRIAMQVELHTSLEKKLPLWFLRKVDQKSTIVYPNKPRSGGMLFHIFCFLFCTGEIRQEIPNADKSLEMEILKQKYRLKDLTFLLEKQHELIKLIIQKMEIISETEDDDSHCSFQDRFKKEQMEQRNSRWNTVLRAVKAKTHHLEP
# UniProt Q8BLA8, whole entry: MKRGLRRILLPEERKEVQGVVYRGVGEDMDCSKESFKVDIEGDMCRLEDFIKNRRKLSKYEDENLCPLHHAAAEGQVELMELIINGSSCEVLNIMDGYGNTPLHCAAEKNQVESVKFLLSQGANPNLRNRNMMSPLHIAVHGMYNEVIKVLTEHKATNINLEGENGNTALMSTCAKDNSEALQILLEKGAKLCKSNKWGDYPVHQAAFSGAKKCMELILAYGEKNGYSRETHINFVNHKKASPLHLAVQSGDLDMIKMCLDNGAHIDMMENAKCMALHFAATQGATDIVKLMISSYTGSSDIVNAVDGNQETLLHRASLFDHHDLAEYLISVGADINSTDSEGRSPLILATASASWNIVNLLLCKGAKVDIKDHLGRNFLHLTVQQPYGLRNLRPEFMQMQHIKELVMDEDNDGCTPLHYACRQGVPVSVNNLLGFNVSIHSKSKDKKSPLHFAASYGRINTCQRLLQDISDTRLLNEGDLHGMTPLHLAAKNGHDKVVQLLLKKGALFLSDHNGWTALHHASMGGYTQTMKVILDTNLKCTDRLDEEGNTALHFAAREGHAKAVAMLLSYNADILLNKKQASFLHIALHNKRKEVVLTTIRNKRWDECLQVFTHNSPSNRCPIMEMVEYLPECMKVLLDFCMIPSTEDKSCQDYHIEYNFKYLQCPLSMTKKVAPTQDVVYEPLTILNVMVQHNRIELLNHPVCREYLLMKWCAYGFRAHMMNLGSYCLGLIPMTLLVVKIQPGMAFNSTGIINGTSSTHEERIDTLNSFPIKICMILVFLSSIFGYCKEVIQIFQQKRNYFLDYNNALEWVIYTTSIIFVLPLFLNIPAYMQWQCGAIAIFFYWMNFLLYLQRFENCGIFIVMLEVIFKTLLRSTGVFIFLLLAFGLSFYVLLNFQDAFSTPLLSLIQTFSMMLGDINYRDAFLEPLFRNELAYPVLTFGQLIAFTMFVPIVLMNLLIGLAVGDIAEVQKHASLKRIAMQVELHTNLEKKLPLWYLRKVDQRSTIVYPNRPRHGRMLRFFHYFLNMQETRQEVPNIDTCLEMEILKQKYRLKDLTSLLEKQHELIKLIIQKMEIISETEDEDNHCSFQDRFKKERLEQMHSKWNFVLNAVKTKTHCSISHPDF
# UniProt Q6RI86, whole entry: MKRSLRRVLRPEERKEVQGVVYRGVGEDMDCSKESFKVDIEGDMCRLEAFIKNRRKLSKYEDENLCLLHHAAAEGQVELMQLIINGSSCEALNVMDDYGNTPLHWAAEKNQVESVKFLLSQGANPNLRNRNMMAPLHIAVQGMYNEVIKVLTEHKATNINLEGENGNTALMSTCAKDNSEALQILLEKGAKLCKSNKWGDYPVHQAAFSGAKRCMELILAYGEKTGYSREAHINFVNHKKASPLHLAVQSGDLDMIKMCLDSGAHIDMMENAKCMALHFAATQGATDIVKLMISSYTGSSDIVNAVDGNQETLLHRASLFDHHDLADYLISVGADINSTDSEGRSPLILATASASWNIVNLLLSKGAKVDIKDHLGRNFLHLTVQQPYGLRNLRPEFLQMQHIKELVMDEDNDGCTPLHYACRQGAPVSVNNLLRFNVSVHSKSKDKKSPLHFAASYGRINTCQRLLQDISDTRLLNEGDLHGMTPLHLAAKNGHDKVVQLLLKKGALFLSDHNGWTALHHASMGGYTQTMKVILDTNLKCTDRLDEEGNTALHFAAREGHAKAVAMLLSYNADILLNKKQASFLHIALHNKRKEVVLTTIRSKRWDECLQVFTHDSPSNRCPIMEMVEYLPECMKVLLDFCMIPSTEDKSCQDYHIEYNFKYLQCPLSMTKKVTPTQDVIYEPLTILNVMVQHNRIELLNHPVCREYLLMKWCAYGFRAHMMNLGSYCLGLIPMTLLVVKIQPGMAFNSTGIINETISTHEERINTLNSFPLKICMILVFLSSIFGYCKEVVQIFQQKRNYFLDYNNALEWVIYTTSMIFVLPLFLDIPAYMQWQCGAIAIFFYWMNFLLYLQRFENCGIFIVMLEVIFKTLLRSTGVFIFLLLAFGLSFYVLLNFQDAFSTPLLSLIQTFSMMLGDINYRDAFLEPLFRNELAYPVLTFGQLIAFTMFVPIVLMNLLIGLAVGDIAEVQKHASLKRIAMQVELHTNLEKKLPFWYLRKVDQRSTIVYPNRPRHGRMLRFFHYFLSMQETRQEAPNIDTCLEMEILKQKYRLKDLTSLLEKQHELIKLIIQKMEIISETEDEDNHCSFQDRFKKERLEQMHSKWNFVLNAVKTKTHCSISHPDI
# Columns and labels:
# Assay type in all cases: cell-based
# Conditions in all cases: filed as agonist
# [1] = biological target: Transient receptor potential cation channel subfamily A member 1 (Homo sapiens, UniProt O75762); test: Agonist activity at full length human TRPA1 transfected in HEK293F cells assessed as increase in Ca2+ influx by FLIPR calcium assay relative to MO
# [2] = biological target: Transient receptor potential cation channel subfamily A member 1 (Mus musculus) (UniProt Q8BLA8); test: Agonist activity at full length mouse TRPA1 transfected in HEK293F cells assessed as increase in Ca2+ influx by FLIPR calcium assay relative to control
# [3] = biological target: Transient receptor potential cation channel subfamily A member 1 (Rattus norvegicus) (UniProt Q6RI86); test: Agonist activity at full length rat TRPA1 transfected in HEK293F cells assessed as increase in Ca2+ influx by FLIPR calcium assay relative to MO
structure (smiles),measurement,setting,value
O=[N+]([O-])c1cc([N+](=O)[O-])c(O)c([N+](=O)[O-])c1,Emax,[1],61%
same,Emax,[2],59%
same,Emax,[3],60%
